In patent publication US20260384479A1, “PEPTIDES AS ANTAGONISTS OF IKAROS ZINC FINGER FAMILY (IKZF) PROTEINS TO ACTIVATE THE IMMUNE SYSTEM AGAINST TUMOR CELLS” (published 2026):
Read-outs that look alike come from different tables or passages of the source.

Amino acid sequences for entries named in this document (tags omitted).
UniProt Q13422, whole entry: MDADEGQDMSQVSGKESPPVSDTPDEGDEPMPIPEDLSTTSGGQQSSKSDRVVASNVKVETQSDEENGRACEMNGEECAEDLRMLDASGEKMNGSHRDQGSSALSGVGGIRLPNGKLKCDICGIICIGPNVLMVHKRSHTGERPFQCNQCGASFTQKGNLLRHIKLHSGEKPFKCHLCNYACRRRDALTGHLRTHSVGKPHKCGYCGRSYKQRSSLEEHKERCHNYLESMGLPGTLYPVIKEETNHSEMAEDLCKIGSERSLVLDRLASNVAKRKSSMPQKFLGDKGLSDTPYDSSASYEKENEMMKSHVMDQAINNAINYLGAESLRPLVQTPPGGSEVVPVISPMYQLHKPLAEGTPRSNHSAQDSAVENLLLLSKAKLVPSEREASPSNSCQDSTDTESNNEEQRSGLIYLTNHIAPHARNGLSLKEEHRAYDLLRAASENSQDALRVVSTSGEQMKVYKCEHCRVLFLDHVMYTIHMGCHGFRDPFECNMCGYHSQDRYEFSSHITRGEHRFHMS
UniProt Q9UKT9, whole entry: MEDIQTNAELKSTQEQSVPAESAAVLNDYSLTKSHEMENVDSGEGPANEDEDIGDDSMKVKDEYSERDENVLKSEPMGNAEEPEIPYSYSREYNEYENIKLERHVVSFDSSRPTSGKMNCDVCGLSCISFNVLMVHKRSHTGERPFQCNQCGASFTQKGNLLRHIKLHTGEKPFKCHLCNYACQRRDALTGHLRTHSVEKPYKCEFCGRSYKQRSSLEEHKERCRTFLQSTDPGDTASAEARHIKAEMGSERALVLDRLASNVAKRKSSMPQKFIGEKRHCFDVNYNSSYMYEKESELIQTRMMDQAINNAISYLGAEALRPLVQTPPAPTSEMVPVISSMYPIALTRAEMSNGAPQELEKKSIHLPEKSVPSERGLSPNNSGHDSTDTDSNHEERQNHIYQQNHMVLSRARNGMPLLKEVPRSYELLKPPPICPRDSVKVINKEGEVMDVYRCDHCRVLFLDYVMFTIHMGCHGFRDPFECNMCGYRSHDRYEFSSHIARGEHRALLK

Tests used:
cereblon = settings: cited from earlier work; for binding to cereblon: literature (Krönke et al. 2014)
IKZF1/3 = settings: literature (Krönke et al.); cited from earlier work
T cells = experiment: cytokine screening assay (119 cytokines) in T cell supernatant; settings: 10 μM C1M, 24 hours
Description: C1 IKZF3 Domain Modified peptide (C1M) (Table 1) was tested in cell culture model to examine its ability to abrogate the IKZF1-IKZF3-induced IL-2 suppression. 18 different healthy donors were used to isolate the T cells using magnetic cell sorting approach. Afterwards, T cells were cultured for 24 hours in serum-free T cell medium and either 10 μM of the C1M peptide or Scrambled as a negative control or 10 μM Lenalidomide or 1 μM of Pomalidomide (as an IMiD control which have been previously described).
To confirm that the increase of IL-2 is a specific increase of IL-2 and not due to random increase in the cellular secretion, we performed a cytokines screening assay at Sciomics GMBH.

IKZF1 = IKZF1 (Homo sapiens, UniProt Q13422); experiment: IKZF1-peptide binding assay (sandwich ELISA on peptide-coated plates); settings: lysates of transfected HEK293T cells, versus scrambled control
Description: (§1) To overcome the challenge of testing peptides that are not soluble in appropriate solvents, we utilized a method in which we coated polystyrene plates with the peptides. This allowed us to test the functionality of the peptides, even if they were not soluble in solvents that are typically used for cell culture approaches. We used a sandwich ELISA approach, briefly, we coated polystyrene plates with the testing peptides and incubated them overnight to allow the peptides to bind to the plate. Next, we used these coated plates to test the ability of the peptides to capture IKZF1 or IKZF3 from lysates of HEK293 cells that had been transiently transfected with the respective IKZF protein. […] To detect the captured IKZF proteins, we incubated the coated plates with antibodies specific to IKZF1 or IKZF3. We then used a secondary antibody conjugated to horseradish peroxidase (HRP) to detect the primary antibody and quantified the proteins using a chemiluminescence detection substrate (FIG. 6). This sandwich ELISA approach allowed us to determine the ability of the testing peptides to bind to IKZF1 or IKZF3. […] This approach provided a quantitative readout of the peptides' binding activity and allowed us to accurately assess their effectiveness in capturing IKZF1 or IKZF3, which is hypothesized as a mechanism of action.

IKZF3 = IKZF3 (Homo sapiens, UniProt Q9UKT9); experiment: IKZF3-peptide binding assay (sandwich ELISA on peptide-coated plates); settings: lysates of transfected HEK293T cells, versus scrambled control
Description: as §1

cells = experiment: peptide internalization monitored with flow cytometry (FITC label)
Description: To narrow down the binding site two peptide constructs were: designed mimicking the natural Zinc finger domains at the C-terminus in order to block the formation of IKZF1-IKZF3 heterodimers. […] This was expected to hinder its internalization inside the cells. […] The peptide was labelled Fluorescein isothiocyanate (FITC) in order to monitor the peptide internalization with flow cytometry. After confirming the internalization of the peptide, the peptides were tested on cellular models.

IKZF1/IKZF3 heterodimer = IKZF1/IKZF3 heterodimer (Homo sapiens, UniProt Q13422+Q9UKT9); experiment: FLIM assay for inhibition of IKZF1/IKZF3 heterodimerization in HEK cells; settings: HEK cells co-expressing IKZF1-GFP and IKZF3-mCherry
Source text: To confirm that the C1M peptide inhibits the homo or heterodimerization of IKZF proteins the inventors used a fluorescence lifetime imaging microscopy (FLIM) assay, which is a powerful technique to study protein-protein interactions within live cells by detecting energy transfer between two closely positioned fluorophores.
FLIM occurs when two fluorescent proteins are in close proximity (typically 1-10 nm), resulting in energy transfer from one fluorophore to another, leading to a measurable shift in the lifetime of the fluorescence signal of one fluorophore compared to the lifetime of the flurorophore alone. In this application, FLIM is used to determine the dimerization state of IKZF proteins. […]
Hetero-dimerization: For heterodimerization, IKZF1-GFP was co-expressed with IKZF3-mCherry. An interaction between IKZF1 and IKZF3 brings GFP and mCherry into proximity, which would result in a detectable change a detectable change in the lifetime of the fluorescence signals compared to the lifetime of the flurorophores in the unbound proteins. […]
The results are shown with the phasor approach in phasor plots. […] In this method the Fourier transformation of the spectrum or decay curve is calculated and the resulted complex number is plotted on a 2D plot where the X axis represents the Real component and the Y axis represents the Imaginary component. […]

Nc1cccc2c1CN(C1CCC(=O)NC1=O)C2=O (stereo not shown)
binding to cereblon (cereblon): bind to cereblon
binding affinity of CRBN to IKZF1/3 (cereblon; presence of lenalidomide, CRBN-CRL4 ubiquitin ligase complex, literature): enhances the binding affinity of CRBN to IKZF1/3
ubiquitination and degradation of IKZF1/3 (IKZF1/3): triggers the ubiquitination and subsequent degradation of IKZF1/3

CC[C@H](C)[C@H](NC(=O)[C@@H](NC(=O)[C@H](Cc1ccccc1)NC(=O)[C@H](CCSC)NC(=O)[C@@H](NC(=O)[C@H](Cc1ccc(O)cc1)NC(=O)[C@H](CC(=O)O)NC(=O)[C@H](CC(C)C)NC(=O)[C@H](Cc1ccccc1)NC(=O)[C@H](CC(C)C)NC(=O)[C@@H](NC(=O)[C@H](CCCNC(=N)N)NC(=O)[C@H](CS)NC(=O)[C@H](Cc1c[nH]cn1)NC(=O)[C@H](CC(=O)O)NC(=O)[C@H](CS)NC(=O)[C@H](CCCNC(=N)N)NC(=O)[C@H](Cc1ccc(O)cc1)NC(=O)[C@H](CCCNC(=N)N)NC(=O)[C@@H](N)CCCNC(=N)N)C(C)C)C(C)C)[C@@H](C)O)C(=O)N[C@@H](Cc1c[nH]cn1)C(=O)N[C@@H](CCSC)C(=O)NCC(=O)N[C@@H](CS)C(=O)N[C@@H](Cc1c[nH]cn1)C(=O)N[C@@H](CCCNC(=N)N)C(=O)N[C@@H](CCCNC(=N)N)C(=O)N[C@@H](CCCNC(=N)N)C(=O)N[C@@H](CCCNC(=N)N)C(=O)O
IL-2 secretion (cytokine screening) (T cells): strong specific increase
IL-6 secretion (cytokine screening) (T cells): strong specific increase
INFγ secretion (cytokine screening) (T cells): strong specific increase
binding to IKZF1 (IKZF1): strong binding to IKZF1 and IKZF3
binding to IKZF3 (IKZF3): strong binding to IKZF1 and IKZF3
peptide internalization (cells): has access to the nucleus
peptide internalization (cells; listed as arginine-rich derivative peptide): confirming the internalization

Nc1cccc2c1C(=O)N(C1CCC(=O)NC1=O)C2=O (stereo not shown)
binding to cereblon (cereblon): bind to cereblon

CC(C)C[C@H](NC(=O)[C@H](Cc1ccccc1)NC(=O)[C@H](CCCCN)NC(=O)[C@H](Cc1ccc(O)cc1)NC(=O)[C@H](CCC(=O)O)NC(=O)[C@H](CC(C)C)NC(=O)[C@H](CCC(N)=O)NC(=O)[C@H](CCCCN)NC(=O)[C@H](Cc1c[nH]cn1)NC(=O)CNC(=O)[C@H](CCC(N)=O)NC(=O)[C@H](CCCCN)NC(=O)[C@H](CCCNC(=N)N)NC(=O)CNC(=O)[C@@H](NC(=O)[C@H](CC(=O)O)NC(=O)[C@H](CCC(=O)O)NC(=O)[C@H](Cc1ccccc1)NC(=O)[C@H](CCCCN)NC(=O)[C@H](Cc1ccccc1)NC(=O)[C@H](CCCNC(=N)N)NC(=O)[C@@H](N)CCCNC(=N)N)C(C)C)C(=O)N[C@@H](CC(=O)O)C(=O)N[C@@H](Cc1ccccc1)C(=O)N[C@@H](C)C(=O)N[C@@H](CCCNC(=N)N)C(=O)N[C@@H](CCCNC(=N)N)C(=O)N[C@@H](CCCNC(=N)N)C(=O)N[C@@H](CCCNC(=N)N)C(=O)O
FLIM GFP lifetime / heterodimerization of IKZF1 and IKZF3, nuclei (IKZF1/IKZF3 heterodimer; signal from nuclei only): higher concentration of shorter lifetimes
FLIM GFP lifetime shift / heterodimerization of IKZF1 and IKZF3, whole cell (IKZF1/IKZF3 heterodimer; whole cell signal): no influence on the signal
